Measured values from ChEMBL document CHEMBL3243921, “2-Pyrrolidinylideneureas, a new class of central nervous system agents” (J Med Chem, 1978).

Test system: Mus musculus
Assay: Acute toxicity in po dosed mouse assessed as concentration required to produce 50% loss of righting reflex administered as qd for 4 days measured for 1 min post last dose
Assay type: organism-based
Conditions: in vivo

Q: Which PD50 does the source give for `CN1C(=O)CN=C(c2ccccc2)c2cc(Cl)ccc21` [DIAZEPAM] here?
A: 485 mg/kg
